Target: T1, tubulin plus microtubule-associated proteins (MAPs) from porcine brains (Sus scrofa, UniProt P02550+P02554)
T1 construct: prepared from porcine brains (freshly obtained from a local slaughter house) by two cycles of polymerization and depolymerization; from tissue; host or cells: porcine brain
Assay: In vitro tubulin polymerization assay (light scattering at 360 nm)
Format: biochemical
Procedure: Tubulin plus microtubule-associated proteins (MAPs) were prepared from porcine brains (freshly obtained from a local slaughter house) by two cycles of polymerization and depolymerization according to a standard protocol. […] The rate and extent of the polymerization reaction were monitored by light scattering at 360 nm using Tecan infinite M200 Pro.
All experiments were performed at least three times. Data are presented as the mean ± standard deviation. Statistical comparison between controls and different treatments were performed by an unpaired Student’s t-test. Significance was considered at p < 0.05.

Chains of the proteins cited; added tags and fusions are not shown.
UniProt P02550, whole entry: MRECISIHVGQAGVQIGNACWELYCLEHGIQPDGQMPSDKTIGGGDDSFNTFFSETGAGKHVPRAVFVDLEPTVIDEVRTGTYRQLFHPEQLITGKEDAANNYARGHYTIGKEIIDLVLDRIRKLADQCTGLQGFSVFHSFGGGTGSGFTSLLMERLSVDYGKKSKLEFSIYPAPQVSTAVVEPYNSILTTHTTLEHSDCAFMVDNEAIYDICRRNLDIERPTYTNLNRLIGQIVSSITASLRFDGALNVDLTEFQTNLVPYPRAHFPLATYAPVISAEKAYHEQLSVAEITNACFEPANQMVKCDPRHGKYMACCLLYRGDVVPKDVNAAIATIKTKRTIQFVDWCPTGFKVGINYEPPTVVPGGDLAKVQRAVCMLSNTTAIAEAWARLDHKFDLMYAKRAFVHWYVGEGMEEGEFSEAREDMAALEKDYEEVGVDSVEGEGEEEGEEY
UniProt P02554, whole entry: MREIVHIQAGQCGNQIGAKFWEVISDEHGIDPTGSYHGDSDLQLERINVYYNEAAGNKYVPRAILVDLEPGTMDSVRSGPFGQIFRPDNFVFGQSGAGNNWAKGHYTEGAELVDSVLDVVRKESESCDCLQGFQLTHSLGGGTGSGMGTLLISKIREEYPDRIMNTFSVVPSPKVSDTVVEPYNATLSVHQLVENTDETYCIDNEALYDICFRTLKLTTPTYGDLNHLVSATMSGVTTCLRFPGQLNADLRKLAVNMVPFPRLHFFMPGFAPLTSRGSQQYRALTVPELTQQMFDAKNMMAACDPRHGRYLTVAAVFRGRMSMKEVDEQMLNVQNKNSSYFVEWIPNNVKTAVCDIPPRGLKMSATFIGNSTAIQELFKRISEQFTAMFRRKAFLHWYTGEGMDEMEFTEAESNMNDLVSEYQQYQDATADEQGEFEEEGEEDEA

| Compound | effect on tubulin polymerization in vitro |
| --- | --- |
| COc1ccc2c(c1OC)C(=O)O[C@@H]2[C@H]1c2c(cc3c(c2OC)OCO3)CCN1C [Noscapine, noscapine] | did not affect tubulin polymerization |
| C/C1=C/C(=O)O[C@@H]2C[C@@H](CC[C@H](C)/C=C\CC1)O[C@@](O)([C@@H]1CSC(=O)N1)C2 [Latrunculin B, latrunculin B] | did not affect tubulin polymerization |
